# Values of other authors, collected in US7759312B2, “Delivery of dry formulations of octreotide” (priority 2005, dated 2010).
# What was measured:
# [1] = tested on: growth hormone, glucagon, and insulin
# [2] = patients with acromegaly; estimated
substance,measurement,setting,value
"L-cysteinamide, D-phenylalanyl-L-cysteiny-L-phenylalanyl-D-tryptophyl-L-lysyl-L-threonyl-N-[2-hydroxy-1-(hydroxymethyl)propyl]-,cyclic(2→7)-disulfide; [Octreotide, L-cysteinamide, D-phenylalanyl-L-cysteiny-L-phenylalanyl-D-tryptophyl-L-lysyl-L-threonyl-N-[2-hydroxy-1-(hydroxymethyl)propyl]-,cyclic(2→7)-disulfide; [R—(R*,R*)]]","potency as inhibitor of growth hormone, glucagon, and insulin relative to somatostatin",[1],even more potent inhibitor
same,volume of distribution (Vdss),[2],21.6 ± 8.5 L
